The values that follow are results of earlier work, collected in US12594281B2, “Pharmaceutical dosage forms and methods of use” (EMALEX BIOSCIENCES, INC., priority 2024, dated 2026).

Sequences of proteins named here, by UniProt entry; tags and fusion partners are left off.
UniProt P14416, whole entry: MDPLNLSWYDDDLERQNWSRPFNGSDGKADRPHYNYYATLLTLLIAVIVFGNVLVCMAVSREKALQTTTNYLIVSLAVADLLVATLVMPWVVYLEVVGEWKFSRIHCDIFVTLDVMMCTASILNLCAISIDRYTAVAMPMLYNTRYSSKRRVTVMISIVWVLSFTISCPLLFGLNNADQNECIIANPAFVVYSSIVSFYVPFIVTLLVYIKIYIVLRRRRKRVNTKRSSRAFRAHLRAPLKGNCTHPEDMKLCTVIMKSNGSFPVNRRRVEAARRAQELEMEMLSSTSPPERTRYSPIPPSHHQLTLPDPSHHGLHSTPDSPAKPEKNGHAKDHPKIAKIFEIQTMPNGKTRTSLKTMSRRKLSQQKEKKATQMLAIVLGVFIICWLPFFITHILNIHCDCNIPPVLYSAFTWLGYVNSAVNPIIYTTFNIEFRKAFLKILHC

As a reminder, the Ki is a dissociation constant, usually derived from enzyme kinetics or from competition with a known ligand.

The target in the data set is ^3H-Spip binding site (Homo sapiens, UniProt P14416). To be noted: read-out: Ki ^3H-Spip; cited from earlier work.

As for `COc1cc2c(cc1O)CCN(C)[C@H]1CCc3ccccc3[C@@H]21` (relative stereo), the Ki was more than 100 µM. For `COc1cc2c(cc1O)CCN(C)[C@H]1CCc3ccccc3[C@H]21` (relative stereo), the Ki is more than 100 µM.
